AlphaSeq binding of Ab-14 heavy chain variants to a spike HR2 peptide

The measurements come from Engelhart et al. 2022 (doi:10.1038/s41597-022-01779-4) through the FLAb antibody collection.

Target peptide (SARS-CoV-2 spike, HR2 region): PDVDLGDISGINAS

Ab-14 is the parent antibody, in scFv form: VH, then three GGGGS repeats, then VL. The light chain is unchanged in all variants.
VH: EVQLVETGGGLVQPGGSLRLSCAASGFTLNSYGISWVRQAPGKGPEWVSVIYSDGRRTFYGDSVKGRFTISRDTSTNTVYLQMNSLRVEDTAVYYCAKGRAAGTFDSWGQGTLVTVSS
VL: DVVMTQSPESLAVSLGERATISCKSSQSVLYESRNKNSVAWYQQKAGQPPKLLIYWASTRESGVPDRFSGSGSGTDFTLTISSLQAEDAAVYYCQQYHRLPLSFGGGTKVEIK

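Phage display of a naive human antibody library on the peptide gave the parent. Variants in AAYL49 differ from the parent at up to three CDR positions; double and triple changes were sampled at random. The scFvs were displayed on barcoded MATa yeast, the peptide on MATalpha yeast. Binding brings cells together so that they mate, and sequencing counts the barcode pairs among the diploids. Scores were corrected for input abundance and mapped to Kd with protein pairs of known affinity run in the same pool. The assay was run in three technical replicates.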

Positions count from residue 1 of the parent VH; T28G puts G in place of T.
Every variant below is changed at N30 of the VH (sequential numbering).
Affinities are written as log10 Kd with Kd in nM; a lower number is a better binder.
Averages over replicates are reported, and they cover detected replicates only.
An entry "nd" has no value in the source: the pair was not observed among the diploids in any replicate. This suggests poor binding but is not conclusive.
As a blank, each scFv also met three strains without target: over library AAYL49, 15% of these pairings were detected, typically at 4.06 and seldom below 2.83.

* T28G/N30S/D106K: nd (0 of 3 replicates)
* N30W/D54R/G99H: nd (0 of 3 replicates)
* G26H/N30K/S35T: nd (0 of 3 replicates)
* F27Q/L29I/N30W: 3.40 (3 of 3 replicates)
* N30K/R57H/V64S: 3.51 (1 of 3 replicates)
* N30Y/I34T/Y52L: nd (0 of 3 replicates)
* N30V/I34S/I51Q: 4.46 (1 of 3 replicates)
* N30I/I51D/F105T: 3.05 (1 of 3 replicates)